# The entries are a selection whose mix differs from that of the whole data set. Only a part of the results of these assays is listed, not drawn at random. The list shows a part of the results. For some assays here: Entries with a potency or affinity are not part of this list. Active and inactive are the calls of the source.
# Chains of the proteins cited; added tags and fusions are not shown. Lines headed by an entry give the natural chain unless they say otherwise; changes in a name come on top.
# UniProt P80244: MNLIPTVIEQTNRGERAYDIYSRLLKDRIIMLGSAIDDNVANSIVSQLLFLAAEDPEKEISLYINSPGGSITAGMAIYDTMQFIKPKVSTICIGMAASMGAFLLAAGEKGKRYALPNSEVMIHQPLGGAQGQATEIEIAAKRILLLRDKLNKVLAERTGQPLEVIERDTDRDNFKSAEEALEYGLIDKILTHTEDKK
# UniProt Q9NUW8, whole entry, looked up: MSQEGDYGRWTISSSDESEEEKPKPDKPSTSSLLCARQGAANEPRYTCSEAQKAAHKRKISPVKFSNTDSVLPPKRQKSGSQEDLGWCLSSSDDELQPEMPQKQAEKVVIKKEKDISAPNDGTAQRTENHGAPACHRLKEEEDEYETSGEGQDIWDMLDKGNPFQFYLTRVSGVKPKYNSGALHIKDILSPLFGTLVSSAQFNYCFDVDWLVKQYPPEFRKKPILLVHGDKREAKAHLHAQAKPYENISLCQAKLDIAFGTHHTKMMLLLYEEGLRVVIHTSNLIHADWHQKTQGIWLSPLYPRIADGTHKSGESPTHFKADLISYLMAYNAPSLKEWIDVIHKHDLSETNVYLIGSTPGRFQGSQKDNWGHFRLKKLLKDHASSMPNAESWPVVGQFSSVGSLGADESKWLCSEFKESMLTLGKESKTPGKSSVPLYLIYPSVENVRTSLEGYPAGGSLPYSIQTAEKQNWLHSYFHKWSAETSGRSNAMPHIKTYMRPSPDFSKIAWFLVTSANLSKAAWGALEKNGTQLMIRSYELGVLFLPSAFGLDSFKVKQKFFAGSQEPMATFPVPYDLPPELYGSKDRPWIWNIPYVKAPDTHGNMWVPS
# UniProt Q9HCT0: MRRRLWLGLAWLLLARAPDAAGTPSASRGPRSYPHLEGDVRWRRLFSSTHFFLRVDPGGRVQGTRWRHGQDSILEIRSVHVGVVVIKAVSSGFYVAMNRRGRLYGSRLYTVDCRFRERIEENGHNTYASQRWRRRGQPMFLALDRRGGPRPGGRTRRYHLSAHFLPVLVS
# UniProt O95398: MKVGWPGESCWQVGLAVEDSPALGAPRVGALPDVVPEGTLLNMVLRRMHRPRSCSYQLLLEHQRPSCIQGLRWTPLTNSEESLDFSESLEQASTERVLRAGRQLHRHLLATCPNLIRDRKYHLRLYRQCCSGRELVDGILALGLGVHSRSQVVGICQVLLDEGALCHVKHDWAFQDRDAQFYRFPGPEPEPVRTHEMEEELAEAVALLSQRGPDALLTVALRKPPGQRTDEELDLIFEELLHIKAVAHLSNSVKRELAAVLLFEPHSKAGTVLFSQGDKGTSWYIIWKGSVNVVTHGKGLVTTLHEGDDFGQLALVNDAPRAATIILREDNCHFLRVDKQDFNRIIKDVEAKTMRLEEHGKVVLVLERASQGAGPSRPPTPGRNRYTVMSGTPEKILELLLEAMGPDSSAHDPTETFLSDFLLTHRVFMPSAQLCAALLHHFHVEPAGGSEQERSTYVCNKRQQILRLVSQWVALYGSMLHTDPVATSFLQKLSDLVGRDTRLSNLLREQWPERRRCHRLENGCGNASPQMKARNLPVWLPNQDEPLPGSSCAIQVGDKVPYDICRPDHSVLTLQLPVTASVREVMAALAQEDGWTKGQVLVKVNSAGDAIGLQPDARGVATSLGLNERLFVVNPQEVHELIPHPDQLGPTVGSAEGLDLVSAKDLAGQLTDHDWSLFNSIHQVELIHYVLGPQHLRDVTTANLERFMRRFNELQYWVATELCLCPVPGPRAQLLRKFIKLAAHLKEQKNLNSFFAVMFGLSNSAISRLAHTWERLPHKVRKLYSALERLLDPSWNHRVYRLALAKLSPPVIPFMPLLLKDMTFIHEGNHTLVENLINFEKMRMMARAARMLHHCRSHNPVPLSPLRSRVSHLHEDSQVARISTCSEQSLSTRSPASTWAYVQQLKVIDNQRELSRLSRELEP
# UniProt Q8WZA2: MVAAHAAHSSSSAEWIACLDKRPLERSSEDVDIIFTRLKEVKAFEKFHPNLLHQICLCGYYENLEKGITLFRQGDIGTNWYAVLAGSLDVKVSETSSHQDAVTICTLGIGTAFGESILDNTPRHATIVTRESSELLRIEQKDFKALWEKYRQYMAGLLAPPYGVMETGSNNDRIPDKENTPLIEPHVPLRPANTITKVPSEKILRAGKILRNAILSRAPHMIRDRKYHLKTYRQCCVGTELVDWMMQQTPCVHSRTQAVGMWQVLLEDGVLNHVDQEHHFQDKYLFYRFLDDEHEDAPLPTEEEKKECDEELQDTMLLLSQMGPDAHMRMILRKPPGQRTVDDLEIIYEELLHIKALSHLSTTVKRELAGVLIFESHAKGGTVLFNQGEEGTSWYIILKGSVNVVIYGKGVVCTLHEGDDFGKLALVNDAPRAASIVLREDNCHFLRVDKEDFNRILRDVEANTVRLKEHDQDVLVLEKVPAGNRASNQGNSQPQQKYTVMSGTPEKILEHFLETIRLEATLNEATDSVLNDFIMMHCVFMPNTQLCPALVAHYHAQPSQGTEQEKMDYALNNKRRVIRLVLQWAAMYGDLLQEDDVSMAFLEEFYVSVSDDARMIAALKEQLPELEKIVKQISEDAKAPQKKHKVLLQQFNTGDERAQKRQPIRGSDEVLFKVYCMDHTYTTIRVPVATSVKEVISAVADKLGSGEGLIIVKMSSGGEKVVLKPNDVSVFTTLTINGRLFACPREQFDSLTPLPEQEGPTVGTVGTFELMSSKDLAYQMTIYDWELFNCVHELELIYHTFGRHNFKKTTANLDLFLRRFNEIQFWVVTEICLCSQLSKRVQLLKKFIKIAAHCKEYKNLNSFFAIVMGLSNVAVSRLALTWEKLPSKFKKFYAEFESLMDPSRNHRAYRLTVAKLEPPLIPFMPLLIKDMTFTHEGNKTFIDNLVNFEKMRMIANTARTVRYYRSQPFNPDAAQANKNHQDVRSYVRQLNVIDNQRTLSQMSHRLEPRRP
# UniProt Q16236, whole entry, looked up: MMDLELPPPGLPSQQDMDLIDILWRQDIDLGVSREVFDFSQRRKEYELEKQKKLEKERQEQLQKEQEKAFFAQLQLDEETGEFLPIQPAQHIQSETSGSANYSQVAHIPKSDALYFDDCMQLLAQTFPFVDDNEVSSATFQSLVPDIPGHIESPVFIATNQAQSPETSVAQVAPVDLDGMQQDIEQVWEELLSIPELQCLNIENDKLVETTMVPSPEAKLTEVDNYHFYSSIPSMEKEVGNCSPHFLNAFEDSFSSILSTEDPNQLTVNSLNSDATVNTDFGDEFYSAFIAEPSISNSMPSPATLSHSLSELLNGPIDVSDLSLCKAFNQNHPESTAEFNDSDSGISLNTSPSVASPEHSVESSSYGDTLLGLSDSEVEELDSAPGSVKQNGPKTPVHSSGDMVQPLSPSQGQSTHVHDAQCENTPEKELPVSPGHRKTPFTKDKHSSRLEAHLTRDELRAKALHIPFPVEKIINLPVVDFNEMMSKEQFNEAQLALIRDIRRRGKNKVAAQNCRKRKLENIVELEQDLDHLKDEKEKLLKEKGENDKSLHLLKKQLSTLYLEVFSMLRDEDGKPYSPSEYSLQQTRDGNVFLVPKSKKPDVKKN
# Assays:
# [1] = target: Guanine nucleotide-binding protein G(s) subunit alpha isoforms short (Homo sapiens) (UniProt P63092); test: qHTS for Agonist of gsp, the Etiologic Mutation Responsible for Fibrous Dysplasia/McCune-Albright Syndrome: qHTS.; type: functional
# [2] = tested on: NCI-H23
# [3] = tested on: RXF 393
# [4] = target: ATP-dependent Clp protease proteolytic subunit (Bacillus subtilis (strain 168)) (UniProt P80244); test: qHTS Assay for Activators of ClpP.; type: functional
# [5] = target: Guanine nucleotide-binding protein G(s) subunit alpha isoforms short (Homo sapiens) (UniProt P63092); test: qHTS for Antagonists of gsp, the Etiologic Mutation Responsible for Fibrous Dysplasia/McCune-Albright Syndrome: qHTS.; type: functional
# [6] = target: Tyrosyl-DNA phosphodiesterase 1 (Homo sapiens) (UniProt Q9NUW8); test: qHTS for Inhibitors of human tyrosyl-DNA phosphodiesterase 1 (TDP1): qHTS in cells in absence of CPT.; type: functional
# [7] = target: Tyrosyl-DNA phosphodiesterase 1 (Homo sapiens) (UniProt Q9NUW8); test: qHTS for Inhibitors of human tyrosyl-DNA phosphodiesterase 1 (TDP1): qHTS in cells in presence of CPT.; type: functional
# [8] = target: Fibroblast growth factor 22 (Homo sapiens) (UniProt Q9HCT0); test: Small Molecule Inhibitors of FGF22-Mediated Excitatory Synaptogenesis & Epilepsy Measured in Biochemical System Using RT-PCR - 7012-01_Inhibitor_Dose_CherryPick_Activity.; type: functional
# [9] = target: Rap guanine nucleotide exchange factor 3 (Homo sapiens) (UniProt O95398); test: qHTS for Antagonist of cAMP-regulated guanine nucleotide exchange factor 3 (EPAC1): primary screen.; type: functional
# [10] = target: Rap guanine nucleotide exchange factor 4 (Homo sapiens) (UniProt Q8WZA2); test: qHTS for Antagonist of cAMP-regulated guanine nucleotide exchange factor 2 (EPAC2): primary screen.; type: functional
# [11] = target: Nuclear factor erythroid 2-related factor 2 (Homo sapiens) (UniProt Q16236)
smiles,measurement,setting,value
C[C@H]1OP(=O)(Oc2ccccc2)C[C@@H]2O[C@@H]21 (stereo partly specified),Potency,[1],inactive
O=C1CCN2CCCC12 (stereo unspecified),GI50,[2],inactive: > 100 µM
same,GI50,[3],inactive: > 100 µM
O=P(Nc1nccs1)(Oc1ccccc1)Oc1ccccc1,Potency,[1],inactive
CC(=O)N1C2C3N(C(C)=O)C1C1N(C(C)=O)C(C(N1C(C)=O)N3C(C)=O)N2C(C)=O,Potency,[1],inactive
O=[N+]([O-])C1([N+](=O)[O-])CCCc2nonc21,GI50,[2],inactive: 20.7 µM
same,GI50,[3],inactive: 40.7 µM
COc1ccc(C[N+](C)(CCCl)CCCl)c([N+](=O)[O-])c1,GI50,[2],inactive: > 100 µM
same,GI50,[3],inactive: > 100 µM
CCCCCCCCCCCCCNCC(C)O (stereo unspecified),GI50,[2],inactive: 15.4 µM
COP(C)(=O)C(N)Cc1ccccc1 (stereo unspecified),GI50,[2],inactive: > 100 µM
COc1ccc([N+](=O)[O-])c(C[N+](C)(CCCl)CCCl)c1,GI50,[2],inactive: > 100 µM
same,GI50,[3],inactive: > 100 µM
Cc1ccc([N+](=O)[O-])c(C[N+](C)(CCCl)CCCl)c1,GI50,[2],inactive: 16.3 µM
same,GI50,[3],inactive: 11.4 µM
CC(C)(C)C(=O)NC(Sc1ncccn1)C(Cl)(Cl)Cl (stereo unspecified),Potency,[1],inactive
C[S+](N)(=O)CCC(N)P(=O)(O)O (stereo unspecified),GI50,[2],inactive: > 100 µM
O[C@@H]1CCN2CCC[C@H]12,GI50,[2],inactive: > 100 µM
same,GI50,[3],inactive: > 100 µM
CCCC[S+](N)(=O)CCC(N)P(=O)(O)O (stereo unspecified),GI50,[2],inactive: > 100 µM
O=C(OC1CN2CCC1CC2)c1ccccc1 (stereo unspecified),Potency,[4],inactive
O=C1Nc2ccc([N+](=O)[O-])cc2/C1=N/Nc1ccc([N+](=O)[O-])cc1[N+](=O)[O-],GI50,[2],inactive: 25.9 µM
same,GI50,[3],inactive: 19.4 µM
COc1ccc2nccc(C=O)c2c1,GI50,[2],inactive: 7.03 µM
same,GI50,[3],inactive: 87.5 µM
O=[N+]([O-])C1([N+](=O)[O-])COCOC1,GI50,[2],inactive: 50.9 µM
same,GI50,[3],inactive: > 100 µM
O[C@H]1[C@@H](O)CC2CCN3Cc4cc5c(cc4[C@H]1C23)OCO5 (stereo partly specified),GI50,[2],inactive: > 100 µM
same,GI50,[3],inactive: > 100 µM
ClCCSc1c2ccccc2nc2ccccc12,GI50,[2],inactive: 10.3 µM
same,GI50,[3],inactive: 15.3 µM
Cc1ccc2ccc3ccc4ccccc4c3c2c1.O=C1c2cc([N+](=O)[O-])ccc2-c2c1cc([N+](=O)[O-])cc2[N+](=O)[O-],GI50,[2],inactive: 3.16 µM
same,GI50,[3],inactive: 1.73 µM
Nc1ccc([As](=O)(O)c2ccc(N)cc2)cc1,Potency,[5],inactive
CN(CCCl)Cc1cc(Cl)c(NC2=NCCN2)c(Cl)c1,Potency,[5],inactive
ClCCN(CCCl)c1ccccc1,Potency,[6],active: 1.41 µM
same,Potency,[7],active: 1.26 µM
CCN(CC)CCCNc1ccccc1[N+](=O)[O-],AbsAC1,[8],active: 9.02 µM
same,Potency,[9],inactive
CCOC(=O)C(CC)C1=NC(C)(C)Cc2ccccc21 (stereo unspecified),Potency,[10],active: 17.8 µM
O=[N+]([O-])c1ccccc1[N+](=O)[O-],Potency,[11],active: 19.3 µM
